According to PMC9495972, “Dissecting the Activity of Catechins as Incomplete Aldose Reductase Differential Inhibitors through Kinetic and Computational Approaches” (Biology, 2022):
Where two headings read alike, the source gives them in different places.

How the values were obtained:
human recombinant AKR1B1 [1] = target: T1, human recombinant AKR1B1 (Homo sapiens, UniProt P15121); test: Inhibition kinetic analysis of AKR1B1-dependent reduction of L-idose, HNE and GSHNE; assay type: biochemical
T1 construct: made in house
Procedure: (§1) The AKR1B1 activity was determined at 37 °C, as previously described, monitoring the decrease in absorbance at 340 nm linked to NADPH oxidation (ε340 = 6.22 mM^−1·cm^−1) using a Biochrom Libra S60 spectrophotometer. The standard assay mixture (0.7 mL) contained 0.25 M sodium phosphate buffer pH 6.8, 0.18 mM NADPH, 0.4 M ammonium sulfate, 0.5 mM EDTA, and 4.7 mM GAL. One unit of enzyme activity is the amount of enzyme that catalyzes the conversion of 1 µmol of substrate/min in the above assay conditions.
(§2) The human recombinant AKR1B1 was expressed and purified to electrophoretic homogeneity, as previously described. […] The purified enzyme was stored at −80 °C in a 10 mM sodium phosphate buffer pH 7.0 containing 2 mM DTT and 30% (w/v) glycerol. Before use, AKR1B1 was extensively dialyzed against 10 mM sodium phosphate buffer pH 7.0.
The kinetic parameters ^appkcat and ^appKM were evaluated by non-linear regression analysis of rate measurements vs. substrate concentration according to Michaelis-Menten equation. The analysis was performed through GraphPad Prism 7.04 software by a non-linear “Robust Regression” analysis in which each point is individually weighted through iterative weighing of the smallest squares. The same approach was adopted to analyze the dependence of ^appkcat, ^appKM, and ^appKM/^appkcat from the concentration of the inhibitors [I], making use of previously derived equations [27] (see text).
The hyperbolic kinetic equation for an incomplete mixed type of inhibition analyzed with both branches of product formation at the steady state and with the inhibitor binding at equilibrium, was defined using the apparent kinetic parameters ^appKM and ^appkcat (Equations (1)–(3), see ref [27] for further details). (1) kappcat=Ki*k+2+k+4[I]/Ki*+[I] (2) appKM=KMKi*+(Ki*/KiKM+k+4/k+1)[I]+k+4/Kik+1[I]^2/Ki*+[I] (3) appKM/appkcat= KMKi*+(Ki*/KiKM+k+4/k+1)[I]+k+4/Kik+1[I]^2/Ki*k+2+k+4[I]
Thus, ^appkcat and ^appKM values emerging from non-linear regression analysis of primary data (Figure 3) were analyzed through non-linear regression using Equations (1) and (2), respectively. […] The above starting values of kcat and KM derived from at least 20 independent experiments in which kinetic parameters were measured in the absence of inhibitors. […] The k+4 values are reported in Table 1 as the average of values emerging from ^appKM/^appkcat versus [I] (Equation (3) or Equation (4)) and 1/^appkcat versus [I] (Equation (1)) plots.

human recombinant AKR1B1 [2] = target: T1, human recombinant AKR1B1; test: AKR1B1 activity inhibition, decrease in absorbance at 340 nm linked to NADPH oxidation; assay type: biochemical; conditions: 10 mU AKR1B1, 37 °C, pH 6.8, 95% CLs in text
Procedure: as §1
IC50 values were determined by non-linear regression analysis using GraphPad Prism version 7.04 (GraphPad Software, San Diego, CA, USA). Values were obtained from at least six different inhibitors concentrations (each assayed at least in triplicate) and are reported with their 95% Confidence Limits (CLs). […] The final concentration of ethanol in the assay was never higher than 1%. […] The percentage of inhibition was calculated referring to an assay performed using the same solvent concentration in the absence of inhibitors.
as §2

Substance: catechin gallate [CG]
- Ki (human recombinant AKR1B1 [1]; GSHNE reduction, apparent dissociation constant of ternary complex EIS): 5 ± 0.2 µM
- Ki (human recombinant AKR1B1 [1]; HNE reduction, apparent dissociation constant of ternary complex EIS): 4.5 ± 0.4 µM
- Ki (human recombinant AKR1B1 [1]; L-idose reduction, apparent dissociation constant of ternary complex EIS): 4.1 ± 0.2 µM
- Ki (human recombinant AKR1B1 [1]; L-idose reduction, dissociation constant of enzyme-inhibitor complex): 246 ± 170 µM
- IC50 (human recombinant AKR1B1 [2]; read-out: IC50 for GSHNE reduction, 0.045 mM GSHNE as substrate): 28 µM
- IC50 (human recombinant AKR1B1 [2]; read-out: IC50 for HNE reduction, 0.03 mM HNE as substrate): 26 µM
- IC50 (human recombinant AKR1B1 [2]; read-out: IC50 for the reduction of L-idose, 8 mM L-idose as substrate): 7 µM
